Source: IntAct's records for PubMed 26766587

B1: Myc proto-oncogene protein (Homo sapiens), P01106 (parent)
chain: MDFFRVVENQQPPATMPLNVSFTNRNYDLDYDSVQPYFYCDEEENFYQQQQQSELQPPAPSEDIWKKFELLPTPPLSPSRRSGLCSPSYVAVTPFSLRGDNDGGGGSFSTADQLEMVTELLGGDMVNQSFICDPDDETFIKNIIIQDCMWSGFSAAAKLVSEKLASYQAARKDSGSPNPARGHSVCSTSSLYLQDLSAAASECIDPSVVFPYPLNDSSSPKSCASQDSSAFSPSSDSLLSSTESSPQGSPEPLVLHEETPPTTSSDSEEEQEDEEEIDVVSVEKRQAPGKRSESGSPSAGGHSKPPHSPLVLKRCHVSTHQHNYAAPPSTRKDYPAAKRVKLDSVRVLRQISNNRKCTSPRSSDTEENVKRRTHNVLERQRRNELKRSFFALRDQIPELENNEKAPKVVILKKATAYILSVQAEEQKLISEEDLLRKRREQLKHKLEQLRNSCA
partner: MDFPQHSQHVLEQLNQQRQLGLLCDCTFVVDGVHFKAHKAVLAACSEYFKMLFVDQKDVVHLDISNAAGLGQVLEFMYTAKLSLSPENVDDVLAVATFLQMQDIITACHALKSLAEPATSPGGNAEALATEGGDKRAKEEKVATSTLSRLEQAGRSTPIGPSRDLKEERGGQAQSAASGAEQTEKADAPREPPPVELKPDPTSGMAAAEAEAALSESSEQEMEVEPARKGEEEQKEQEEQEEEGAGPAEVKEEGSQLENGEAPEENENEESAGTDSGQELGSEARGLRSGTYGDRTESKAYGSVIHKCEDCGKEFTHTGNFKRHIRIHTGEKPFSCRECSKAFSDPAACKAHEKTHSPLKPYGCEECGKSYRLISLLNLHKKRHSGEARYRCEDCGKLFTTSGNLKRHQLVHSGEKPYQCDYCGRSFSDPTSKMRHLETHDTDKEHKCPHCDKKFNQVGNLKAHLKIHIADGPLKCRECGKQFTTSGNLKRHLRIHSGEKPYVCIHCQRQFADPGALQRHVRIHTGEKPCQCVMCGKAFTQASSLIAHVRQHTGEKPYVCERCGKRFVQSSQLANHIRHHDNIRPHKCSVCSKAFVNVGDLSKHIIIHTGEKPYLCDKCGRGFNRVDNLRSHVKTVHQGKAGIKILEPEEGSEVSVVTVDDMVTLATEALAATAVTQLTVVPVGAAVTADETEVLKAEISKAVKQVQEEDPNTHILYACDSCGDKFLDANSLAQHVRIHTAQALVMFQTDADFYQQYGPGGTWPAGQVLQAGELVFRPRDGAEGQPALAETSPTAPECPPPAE

Variants of: B1
Conditions: with zbt17_human ZBTB17, Q13105

effect of a mutation on the interaction | Variant
decreasing interaction strength | V409D
